In IntAct's records for PubMed 31515488:

B1: TNFAIP3-interacting protein 1 (Homo sapiens), Q15025 (parent)
chain: MEGRGPYRIYDPGGSVPSGEASAAFERLVKENSRLKEKMQGIKMLGELLEESQMEATRLRQKAEELVKDNELLPPPSPSLGSFDPLAELTGKDSNVTASPTAPACPSDKPAPVQKPPSSGTSSEFEVVTPEEQNSPESSSHANAMALGPLPREDGNLMLHLQRLETTLSVCAEEPDHGQLFTHLGRMALEFNRLASKVHKNEQRTSILQTLCEQLRKENEALKAKLDKGLEQRDQAAERLREENLELKKLLMSNGNKEGASGRPGSPKMEGTGKKAVAGQQQASVTAGKVPEVVALGAAEKKVKMLEQQRSELLEVNKQWDQHFRSMKQQYEQKITELRQKLADLQKQVTDLEAEREQKQRDFDRKLLLAKSKIEMEETDKEQLTAEAKELRQKVKYLQDQLSPLTRQREYQEKEIQRLNKALEEALSIQTPPSSPPTAFGSPEGAGALLRKQELVTQNELLKQQVKIFEEDFQRERSDRERMNEEKEELKKQVEKLQAQVTLSNAQLKAFKDEEKAREALRQQKRKAKASGERYHVEPHPEHLCGAYPYAYPPMPAMVPHHGFEDWSQIRYPPPPMAMEHPPPLPNSRLFHLPEYTWRLPCGGVRNPNQSSQVMDPPTARPTEPESPKNDREGPQ
partner: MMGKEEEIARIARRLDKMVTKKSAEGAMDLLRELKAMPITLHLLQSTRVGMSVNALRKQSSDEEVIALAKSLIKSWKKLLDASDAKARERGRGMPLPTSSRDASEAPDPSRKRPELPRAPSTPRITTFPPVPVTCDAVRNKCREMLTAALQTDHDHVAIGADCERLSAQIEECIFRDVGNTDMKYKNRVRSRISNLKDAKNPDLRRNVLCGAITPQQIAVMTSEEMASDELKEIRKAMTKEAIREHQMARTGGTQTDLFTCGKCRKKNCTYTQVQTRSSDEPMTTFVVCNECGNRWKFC
B2: TNFAIP3-interacting protein 1 (Homo sapiens), Q15025 (parent)
chain: B1 chain
partner: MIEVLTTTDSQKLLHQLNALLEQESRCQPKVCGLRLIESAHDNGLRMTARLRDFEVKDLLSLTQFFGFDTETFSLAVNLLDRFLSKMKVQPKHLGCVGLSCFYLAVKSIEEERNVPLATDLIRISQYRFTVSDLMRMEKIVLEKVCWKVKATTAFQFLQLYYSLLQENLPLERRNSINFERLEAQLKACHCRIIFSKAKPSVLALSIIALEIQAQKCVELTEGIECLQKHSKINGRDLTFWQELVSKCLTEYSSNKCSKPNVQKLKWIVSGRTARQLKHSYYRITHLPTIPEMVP
B3: Protein INCA1 (Homo sapiens), Q0VD86 (parent)
chain: MQVQDDGVNLIPFAKCSRVVSRSPPPRLPSQSLRPMPQRYGDVFWKNLNQRPTPTWLEEQHIPPMLRATGCSQLGLYPPEQLPPPEMLWRRKKRRPCLEGMQQQGLGGVPARVRAVTYHLEDLRRRQSIINELKKAQWGSSGAASEPVVLGEEGCGFPSTNEYPDLEEERATYPQEEDRFLTPGRAQLLWSPWSPLDQEEACASRQLHSLASFSTVTARRNPLHNPWGMELAASEE
partner: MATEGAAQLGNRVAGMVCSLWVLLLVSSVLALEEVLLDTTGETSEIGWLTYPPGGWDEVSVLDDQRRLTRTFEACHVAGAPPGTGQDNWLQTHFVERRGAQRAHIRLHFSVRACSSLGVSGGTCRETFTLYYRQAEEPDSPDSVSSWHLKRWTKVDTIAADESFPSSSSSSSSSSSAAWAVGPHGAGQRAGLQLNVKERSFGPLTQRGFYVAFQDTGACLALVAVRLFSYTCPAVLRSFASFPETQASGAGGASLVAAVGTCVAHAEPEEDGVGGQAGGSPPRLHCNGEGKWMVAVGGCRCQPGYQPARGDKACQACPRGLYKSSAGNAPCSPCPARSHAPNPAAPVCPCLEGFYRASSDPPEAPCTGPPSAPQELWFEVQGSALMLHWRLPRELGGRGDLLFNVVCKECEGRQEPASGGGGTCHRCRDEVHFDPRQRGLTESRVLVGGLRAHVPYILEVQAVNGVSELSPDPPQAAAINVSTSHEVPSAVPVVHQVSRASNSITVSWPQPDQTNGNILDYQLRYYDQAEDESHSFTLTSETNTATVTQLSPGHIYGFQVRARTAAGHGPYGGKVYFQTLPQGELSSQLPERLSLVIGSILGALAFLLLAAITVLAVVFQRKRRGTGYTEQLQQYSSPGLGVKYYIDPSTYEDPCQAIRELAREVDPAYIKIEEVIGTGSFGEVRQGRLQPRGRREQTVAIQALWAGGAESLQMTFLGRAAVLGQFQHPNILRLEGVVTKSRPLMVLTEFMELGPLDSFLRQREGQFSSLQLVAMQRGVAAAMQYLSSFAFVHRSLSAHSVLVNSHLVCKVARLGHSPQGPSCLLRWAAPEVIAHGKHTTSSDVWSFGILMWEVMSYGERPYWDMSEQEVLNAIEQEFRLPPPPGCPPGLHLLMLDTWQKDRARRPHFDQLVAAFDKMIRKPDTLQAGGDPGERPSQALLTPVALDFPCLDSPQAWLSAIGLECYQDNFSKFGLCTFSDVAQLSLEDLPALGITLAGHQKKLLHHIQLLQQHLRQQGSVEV
B4: Histone-lysine N-methyltransferase SUV39H2 (Homo sapiens), Q9H5I1 (parent)
chain: MAAVGAEARGAWCVPCLVSLDTLQELCRKEKLTCKSIGITKRNLNNYEVEYLCDYKVVKDMEYYLVKWKGWPDSTNTWEPLQNLKCPLLLQQFSNDKHNYLSQVKKGKAITPKDNNKTLKPAIAEYIVKKAKQRIALQRWQDELNRRKNHKGMIFVENTVDLEGPPSDFYYINEYKPAPGISLVNEATFGCSCTDCFFQKCCPAEAGVLLAYNKNQQIKIPPGTPIYECNSRCQCGPDCPNRIVQKGTQYSLCIFRTSNGRGWGVKTLVKIKRMSFVMEYVGEVITSEEAERRGQFYDNKGITYLFDLDYESDEFTVDAARYGNVSHFVNHSCDPNLQVFNVFIDNLDTRLPRIALFSTRTINAGEELTFDYQMKGSGDISSDSIDHSPAKKRVRTVCKCGAVTCRGYLN
partner: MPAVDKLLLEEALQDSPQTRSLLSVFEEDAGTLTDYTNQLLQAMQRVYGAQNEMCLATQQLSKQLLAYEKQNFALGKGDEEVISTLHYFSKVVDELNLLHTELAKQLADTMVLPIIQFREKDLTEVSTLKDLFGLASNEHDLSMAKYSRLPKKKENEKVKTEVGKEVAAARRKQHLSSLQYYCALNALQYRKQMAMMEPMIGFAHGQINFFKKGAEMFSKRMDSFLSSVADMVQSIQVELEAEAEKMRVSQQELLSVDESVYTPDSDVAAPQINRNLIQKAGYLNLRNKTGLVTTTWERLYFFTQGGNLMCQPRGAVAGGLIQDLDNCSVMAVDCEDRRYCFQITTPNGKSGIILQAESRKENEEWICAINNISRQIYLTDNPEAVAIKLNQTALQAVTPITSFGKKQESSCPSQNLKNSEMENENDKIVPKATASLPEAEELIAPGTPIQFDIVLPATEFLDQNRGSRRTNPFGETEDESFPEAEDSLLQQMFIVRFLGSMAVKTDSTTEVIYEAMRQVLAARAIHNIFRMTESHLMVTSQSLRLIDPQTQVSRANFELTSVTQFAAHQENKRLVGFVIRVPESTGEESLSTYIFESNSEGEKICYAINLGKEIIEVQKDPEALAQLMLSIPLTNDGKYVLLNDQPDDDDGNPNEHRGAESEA
B5: 26S proteasome non-ATPase regulatory subunit 5 (Homo sapiens), Q16401 (parent)
chain: MAAQALALLREVARLEAPLEELRALHSVLQAVPLNELRQQAAELRLGPLFSLLNENHREKTTLCVSILERLLQAMEPVHVARNLRVDLQRGLIHPDDSVKILTLSQIGRIVENSDAVTEILNNAELLKQIVYCIGGENLSVAKAAIKSLSRISLTQAGLEALFESNLLDDLKSVMKTNDIVRYRVYELIIEISSVSPESLNYCTTSGLVTQLLRELTGEDVLVRATCIEMVTSLAYTHHGRQYLAQEGVIDQISNIIVGADSDPFSSFYLPGFVKFFGNLAVMDSPQQICERYPIFVEKVFEMIESQDPTMIGVAVDTVGILGSNVEGKQVLQKTGTRFERLLMRIGHQSKNAPVELKIRCLDAISSLLYLPPEQQTDDLLRMTESWFSSLSRDPLELFRGISSQPFPELHCAALKVFTAIANQPWAQKLMFNSPGFVEYVVDRSVEHDKASKDAKYELVKALANSKTIAEIFGNPNYLRLRTYLSEGPYYVKPVSTTAVEGAE
B6: RAC-alpha serine/threonine-protein kinase (Homo sapiens), P31749-1 (parent)
chain: MSDVAIVKEGWLHKRGEYIKTWRPRYFLLKNDGTFIGYKERPQDVDQREAPLNNFSVAQCQLMKTERPRPNTFIIRCLQWTTVIERTFHVETPEEREEWTTAIQTVADGLKKQEEEEMDFRSGSPSDNSGAEEMEVSLAKPKHRVTMNEFEYLKLLGKGTFGKVILVKEKATGRYYAMKILKKEVIVAKDEVAHTLTENRVLQNSRHPFLTALKYSFQTHDRLCFVMEYANGGELFFHLSRERVFSEDRARFYGAEIVSALDYLHSEKNVVYRDLKLENLMLDKDGHIKITDFGLCKEGIKDGATMKTFCGTPEYLAPEVLEDNDYGRAVDWWGLGVVMYEMMCGRLPFYNQDHEKLFELILMEEIRFPRTLGPEAKSLLSGLLKKDPKQRLGGGSEDAKEIMQHRFFAGIVWQHVYEKKLSPPFKPQVTSETDTRYFDEEFTAQMITITPPDQDDSMECVDSERRPHFPQFSYSASGTA
B7: T-cell leukemia/lymphoma protein 1A (Homo sapiens), P56279 (parent)
chain: MAECPTLGEAVTDHPDRLWAWEKFVYLDEKQHAWLPLTIEIKDRLQLRVLLRREDVVLGRPMTPTQIGPSLLPIMWQLYPDGRYRSSDSSFWRLVYHIKIDGVEDMLLELLPDD
partner: B6 chain
B8: Zinc finger protein SNAI1 (Homo sapiens), O95863 (parent)
chain: MPRSFLVRKPSDPNRKPNYSELQDSNPEFTFQQPYDQAHLLAAIPPPEILNPTASLPMLIWDSVLAPQAQPIAWASLRLQESPRVAELTSLSDEDSGKGSQPPSPPSPAPSSFSSTSVSSLEAEAYAAFPGLGQVPKQLAQLSEAKDLQARKAFNCKYCNKEYLSLGALKMHIRSHTLPCVCGTCGKAFSRPWLLQGHVRTHTGEKPFSCPHCSRAFADRSNLRAHLQTHSDVKKYQCQACARTFSRMSLLHKHQESGCSGCPR
B9: T-cell leukemia/lymphoma protein 1A (Homo sapiens), P56279 (parent)
chain: B7 chain
partner: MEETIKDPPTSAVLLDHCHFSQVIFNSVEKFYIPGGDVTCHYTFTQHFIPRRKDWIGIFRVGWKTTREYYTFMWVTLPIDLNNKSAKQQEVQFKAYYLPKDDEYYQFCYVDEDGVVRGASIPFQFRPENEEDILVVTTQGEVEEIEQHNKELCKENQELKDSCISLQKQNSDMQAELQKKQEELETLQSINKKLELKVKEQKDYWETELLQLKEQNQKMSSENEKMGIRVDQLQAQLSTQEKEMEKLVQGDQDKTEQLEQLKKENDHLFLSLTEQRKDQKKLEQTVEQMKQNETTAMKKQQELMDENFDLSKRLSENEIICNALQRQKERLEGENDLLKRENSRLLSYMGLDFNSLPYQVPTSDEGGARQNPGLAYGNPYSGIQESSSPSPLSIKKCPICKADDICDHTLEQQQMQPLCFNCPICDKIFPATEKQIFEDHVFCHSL

Variants of: B1
Conditions: with tcea2_human TCEA2, Q15560

| effect of a mutation on the interaction | Variant |
| --- | --- |
| with no effect | K30T |
| with no effect | G178S |
| with no effect | V16M |

Variants of: B2
Conditions: with ccng1_human CCNG1, P51959

| Variant | effect of a mutation on the interaction |
| --- | --- |
| V16M | with no effect |
| K30T | with no effect |

Next, values leading:

| effect of a mutation on the interaction | Variant |
| --- | --- |
| with no effect | Q214K |
| with no effect | G178S |

Variants of: B3
Conditions: with ephb6_human EPHB6, O15197

| effect of a mutation on the interaction | Variant |
| --- | --- |
| with no effect | E153D |

Variants of: B4
Conditions: with dp13b_human APPL2, Q8NEU8

| effect of a mutation on the interaction | Variant |
| --- | --- |
| with no effect | S182T |

Variants of: B5
Conditions: with prs4_human PSMC1, P62191

| effect of a mutation on the interaction | Variant |
| --- | --- |
| disrupting interaction strength | A7S |

Variants of: B5
Conditions: with prs7_human PSMC2, P35998

| effect of a mutation on the interaction | Variant |
| --- | --- |
| with no effect | A7S |

Variants of: B6
Conditions: with tcl1a_human TCL1A

| Variant | effect of a mutation on the interaction |
| --- | --- |
| E17K | disrupting interaction strength |
| F35L | with no effect |
| E49K | with no effect |

The next lines start with the values.

| effect of a mutation on the interaction | Variant |
| --- | --- |
| disrupting interaction strength | Q79K |
| disrupting interaction strength | L153P |
| disrupting interaction strength | L52R |

Variants of: B7
Conditions: with akt1_human AKT1, P31749

| effect of a mutation on the interaction | Variant |
| --- | --- |
| with no effect | V103M |

Variants of: B8
Conditions: with tri23_human TRIM23, P36406

| effect of a mutation on the interaction | Variant |
| --- | --- |
| with no effect | V118A |

Variants of: B8
Conditions: with trip6_human TRIP6, Q15654

| effect of a mutation on the interaction | Variant |
| --- | --- |
| with no effect | V118A |

Variants of: B8
Conditions: with k1h1_human KRT31, Q15323

| effect of a mutation on the interaction | Variant |
| --- | --- |
| with no effect | V118A |

Variants of: B9
Conditions: with caco2_human CALCOCO2, Q13137

| effect of a mutation on the interaction | Variant |
| --- | --- |
| with no effect | V103M |
